The chains behind the UniProt entries cited, without tags or fusion partners. Where a name states a change or a piece, a line headed by the entry shows the natural chain unless it says otherwise.
UniProt Q9Y233: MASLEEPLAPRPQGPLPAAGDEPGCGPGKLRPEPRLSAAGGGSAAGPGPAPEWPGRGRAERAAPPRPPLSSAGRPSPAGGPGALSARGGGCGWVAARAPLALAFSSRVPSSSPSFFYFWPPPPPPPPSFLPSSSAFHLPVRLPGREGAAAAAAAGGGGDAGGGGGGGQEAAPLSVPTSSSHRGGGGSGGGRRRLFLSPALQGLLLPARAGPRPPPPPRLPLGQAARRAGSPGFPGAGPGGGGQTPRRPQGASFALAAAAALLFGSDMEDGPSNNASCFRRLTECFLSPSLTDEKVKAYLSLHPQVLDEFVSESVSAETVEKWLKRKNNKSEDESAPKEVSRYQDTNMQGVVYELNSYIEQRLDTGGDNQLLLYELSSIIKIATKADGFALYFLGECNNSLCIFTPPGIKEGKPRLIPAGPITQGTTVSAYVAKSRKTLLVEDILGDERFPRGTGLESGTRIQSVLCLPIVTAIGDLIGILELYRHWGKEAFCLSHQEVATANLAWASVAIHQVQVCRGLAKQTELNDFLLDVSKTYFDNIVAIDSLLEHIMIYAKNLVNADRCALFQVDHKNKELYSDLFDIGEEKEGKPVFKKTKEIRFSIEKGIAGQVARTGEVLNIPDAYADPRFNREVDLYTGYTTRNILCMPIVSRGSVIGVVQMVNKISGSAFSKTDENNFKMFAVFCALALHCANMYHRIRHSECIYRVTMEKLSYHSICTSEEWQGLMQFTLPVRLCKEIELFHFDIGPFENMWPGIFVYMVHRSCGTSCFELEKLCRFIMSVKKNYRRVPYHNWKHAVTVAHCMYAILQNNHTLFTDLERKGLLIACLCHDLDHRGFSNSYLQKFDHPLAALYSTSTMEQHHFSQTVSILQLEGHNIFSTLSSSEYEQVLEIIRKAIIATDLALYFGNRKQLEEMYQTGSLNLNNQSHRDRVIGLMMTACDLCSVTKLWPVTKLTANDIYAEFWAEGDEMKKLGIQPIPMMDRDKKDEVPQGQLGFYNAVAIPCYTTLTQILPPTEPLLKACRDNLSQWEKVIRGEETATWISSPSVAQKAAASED

In ChEMBL document CHEMBL1955808, “Discovery of 4-hydroxy-1,6-naphthyridine-3-carbonitrile derivatives as novel PDE10A inhibitors” (Bioorg Med Chem Lett, 2012):

Biological target: cAMP and cAMP-inhibited cGMP 3',5'-cyclic phosphodiesterase 10A (Homo sapiens, UniProt Q9Y233)
Experiment: Inhibition of human recombinant full length PDE10A using cAMP as substrate preincubated for 20 mins measured after 4 hrs

COc1ccc(Cc2nccc3cc(OC)c(OC)cc23)cc1OC [PAPAVERINE]
IC50: 36 nM
